Results published in patent US20250092033A1, “HETEROAROMATIC NITROGEN-OXIDE COMPOUND, PREPARATION METHOD THEREFOR, AND USE THEREOF” (BEIJING AVISTONE BIOTECHNOLOGY CO., LTD., priority 2021, published 2025).

Sequences of proteins named here, by UniProt entry; tags and fusion partners are left off. A change or cut given only in a name is not applied to a line headed by its entry. Residues count along the entry.
UniProt P08581, 25-1390 limits assumed: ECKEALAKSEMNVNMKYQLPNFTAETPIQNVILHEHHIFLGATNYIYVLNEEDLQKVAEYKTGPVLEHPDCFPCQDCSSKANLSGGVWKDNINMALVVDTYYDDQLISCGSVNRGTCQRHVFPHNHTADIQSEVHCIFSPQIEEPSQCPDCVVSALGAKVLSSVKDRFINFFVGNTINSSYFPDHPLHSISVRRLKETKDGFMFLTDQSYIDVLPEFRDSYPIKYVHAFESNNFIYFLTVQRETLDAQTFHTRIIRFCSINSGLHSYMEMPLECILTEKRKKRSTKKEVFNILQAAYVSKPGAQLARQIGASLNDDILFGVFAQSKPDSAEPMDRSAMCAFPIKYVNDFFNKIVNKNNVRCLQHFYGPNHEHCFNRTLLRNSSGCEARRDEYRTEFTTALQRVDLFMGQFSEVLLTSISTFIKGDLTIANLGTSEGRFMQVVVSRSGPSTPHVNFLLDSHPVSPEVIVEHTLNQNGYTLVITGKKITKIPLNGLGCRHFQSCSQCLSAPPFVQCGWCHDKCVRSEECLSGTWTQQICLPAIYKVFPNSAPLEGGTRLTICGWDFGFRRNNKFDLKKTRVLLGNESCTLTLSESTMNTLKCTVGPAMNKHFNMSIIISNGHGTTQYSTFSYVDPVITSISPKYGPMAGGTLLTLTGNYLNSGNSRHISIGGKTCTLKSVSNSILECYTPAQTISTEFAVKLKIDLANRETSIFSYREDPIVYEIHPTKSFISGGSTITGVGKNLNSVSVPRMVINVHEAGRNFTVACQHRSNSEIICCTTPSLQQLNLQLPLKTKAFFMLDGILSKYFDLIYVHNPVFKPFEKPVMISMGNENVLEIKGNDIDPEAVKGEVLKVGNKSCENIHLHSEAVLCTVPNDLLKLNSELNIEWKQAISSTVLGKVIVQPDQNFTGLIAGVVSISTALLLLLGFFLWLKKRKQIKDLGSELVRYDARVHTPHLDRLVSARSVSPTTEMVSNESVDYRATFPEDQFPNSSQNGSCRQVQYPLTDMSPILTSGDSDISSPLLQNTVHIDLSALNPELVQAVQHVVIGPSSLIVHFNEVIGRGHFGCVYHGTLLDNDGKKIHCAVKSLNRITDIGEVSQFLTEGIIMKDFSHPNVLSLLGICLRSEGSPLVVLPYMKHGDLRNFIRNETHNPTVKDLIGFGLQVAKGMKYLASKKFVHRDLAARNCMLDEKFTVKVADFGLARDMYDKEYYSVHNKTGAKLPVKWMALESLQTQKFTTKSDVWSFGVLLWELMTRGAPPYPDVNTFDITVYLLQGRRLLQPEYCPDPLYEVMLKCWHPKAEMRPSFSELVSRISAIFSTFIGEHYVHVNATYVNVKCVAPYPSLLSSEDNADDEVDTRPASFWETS
UniProt P08581, 25-1390 D1228N limits assumed: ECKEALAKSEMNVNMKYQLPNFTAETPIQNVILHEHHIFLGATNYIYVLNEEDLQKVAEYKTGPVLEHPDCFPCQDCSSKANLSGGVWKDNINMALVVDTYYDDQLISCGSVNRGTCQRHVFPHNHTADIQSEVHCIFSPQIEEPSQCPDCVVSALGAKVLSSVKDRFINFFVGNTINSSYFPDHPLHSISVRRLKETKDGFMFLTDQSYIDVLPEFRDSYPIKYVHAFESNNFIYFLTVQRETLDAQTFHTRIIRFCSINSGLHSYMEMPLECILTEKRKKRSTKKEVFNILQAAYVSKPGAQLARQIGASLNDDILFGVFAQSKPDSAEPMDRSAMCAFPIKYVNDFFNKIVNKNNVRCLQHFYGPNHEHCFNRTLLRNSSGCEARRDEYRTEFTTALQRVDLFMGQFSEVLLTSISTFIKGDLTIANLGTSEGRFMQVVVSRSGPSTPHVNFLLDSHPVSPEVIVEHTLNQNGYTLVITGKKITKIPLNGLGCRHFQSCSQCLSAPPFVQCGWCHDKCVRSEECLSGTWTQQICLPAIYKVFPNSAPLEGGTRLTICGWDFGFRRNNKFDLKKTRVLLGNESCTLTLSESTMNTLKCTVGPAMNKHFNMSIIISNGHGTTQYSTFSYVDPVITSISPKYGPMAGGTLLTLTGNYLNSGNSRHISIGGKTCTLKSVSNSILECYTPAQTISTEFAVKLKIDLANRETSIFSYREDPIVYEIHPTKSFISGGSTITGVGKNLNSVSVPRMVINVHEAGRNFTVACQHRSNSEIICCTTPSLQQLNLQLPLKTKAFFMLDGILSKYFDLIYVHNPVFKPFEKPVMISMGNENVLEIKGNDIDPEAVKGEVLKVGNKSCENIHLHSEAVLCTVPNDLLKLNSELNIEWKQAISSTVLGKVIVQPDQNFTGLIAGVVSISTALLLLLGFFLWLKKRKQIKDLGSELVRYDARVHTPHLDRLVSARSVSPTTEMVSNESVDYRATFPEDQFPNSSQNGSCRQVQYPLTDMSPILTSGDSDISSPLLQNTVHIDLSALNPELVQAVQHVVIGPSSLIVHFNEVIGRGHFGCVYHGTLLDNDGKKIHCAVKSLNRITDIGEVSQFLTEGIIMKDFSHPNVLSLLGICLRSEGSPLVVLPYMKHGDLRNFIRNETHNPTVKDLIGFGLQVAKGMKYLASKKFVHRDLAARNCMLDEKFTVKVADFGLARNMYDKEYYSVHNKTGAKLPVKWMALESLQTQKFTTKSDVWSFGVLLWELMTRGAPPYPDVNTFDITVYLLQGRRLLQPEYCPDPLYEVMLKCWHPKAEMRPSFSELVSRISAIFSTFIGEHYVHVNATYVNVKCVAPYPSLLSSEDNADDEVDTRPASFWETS
UniProt P08581, 25-1390 F1200I limits assumed: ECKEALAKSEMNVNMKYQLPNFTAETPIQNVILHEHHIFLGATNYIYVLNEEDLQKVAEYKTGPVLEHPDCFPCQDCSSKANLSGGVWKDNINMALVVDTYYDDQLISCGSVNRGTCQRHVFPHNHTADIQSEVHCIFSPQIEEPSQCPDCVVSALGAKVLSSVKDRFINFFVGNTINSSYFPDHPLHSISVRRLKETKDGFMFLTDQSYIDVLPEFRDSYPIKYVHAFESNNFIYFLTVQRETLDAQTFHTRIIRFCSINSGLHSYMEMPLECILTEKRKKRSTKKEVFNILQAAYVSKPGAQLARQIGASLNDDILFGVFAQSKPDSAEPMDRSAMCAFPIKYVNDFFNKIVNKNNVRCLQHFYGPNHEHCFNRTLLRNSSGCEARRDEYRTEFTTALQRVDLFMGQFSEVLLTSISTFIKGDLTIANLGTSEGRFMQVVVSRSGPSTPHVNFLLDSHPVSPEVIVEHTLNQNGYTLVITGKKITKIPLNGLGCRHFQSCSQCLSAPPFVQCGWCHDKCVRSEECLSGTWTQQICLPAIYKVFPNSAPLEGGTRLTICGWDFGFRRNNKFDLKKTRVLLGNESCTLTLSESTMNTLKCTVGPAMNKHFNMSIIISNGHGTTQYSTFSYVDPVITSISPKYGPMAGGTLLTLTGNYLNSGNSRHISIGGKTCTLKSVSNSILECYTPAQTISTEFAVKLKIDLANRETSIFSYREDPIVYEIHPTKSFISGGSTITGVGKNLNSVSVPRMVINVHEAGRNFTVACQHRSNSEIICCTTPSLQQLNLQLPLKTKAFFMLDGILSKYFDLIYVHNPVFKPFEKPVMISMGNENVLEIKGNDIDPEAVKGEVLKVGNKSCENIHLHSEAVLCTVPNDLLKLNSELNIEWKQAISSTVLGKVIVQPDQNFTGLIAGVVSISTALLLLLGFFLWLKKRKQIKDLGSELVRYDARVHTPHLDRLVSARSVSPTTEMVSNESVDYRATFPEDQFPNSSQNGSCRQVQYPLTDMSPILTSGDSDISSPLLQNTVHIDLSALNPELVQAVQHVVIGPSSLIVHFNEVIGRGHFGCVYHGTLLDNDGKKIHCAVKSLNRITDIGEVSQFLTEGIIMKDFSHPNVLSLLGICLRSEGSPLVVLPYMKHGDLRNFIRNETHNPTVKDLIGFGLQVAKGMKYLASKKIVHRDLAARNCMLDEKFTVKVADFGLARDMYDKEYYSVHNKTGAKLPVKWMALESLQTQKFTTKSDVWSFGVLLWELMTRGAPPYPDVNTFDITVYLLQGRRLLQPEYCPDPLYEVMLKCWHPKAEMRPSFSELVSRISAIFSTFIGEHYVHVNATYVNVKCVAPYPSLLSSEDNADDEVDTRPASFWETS

How the values were obtained:
[1] = biological target: wild type (WT) MET kinase (Homo sapiens, UniProt P08581); experiment: Kinase inhibition experiment (HTRF KinEASE-TK kit), wild-type MET; format: biochemical; details: read-out: IC50 (nM) of inhibition of wild type (WT) MET kinase, 10 concentrations, 3-fold dilution
Method: (§1) The activity of the compounds was determined by detecting the residual amount of ATP after reacting with wild-type or mutant MET protein kinase by using an HTRF KinEASE-TK kit. […]
(§2) The compounds were determined on the selected kinase, the solvent control was set and a total of 10 concentrations were detected, diluted 3-fold, 2 replicates per concentration.
(§3) 1 volume of 5× kinase reaction buffer and 4 volumes of water; 5 mM MgCl2; 1 mM DTT; 1 mM MnCl2; or 2500 nm SEB.
(§4) 1) 10 nl or 4 μlof the diluted compound was transferred to each well of the reaction plate (784075 or 264706, Greiner or Thermo) with a pipette, the reaction plate was sealed with a sealing plate, and centrifuged at 1000 for 1 minute.
(§5) 2) 2× MET was prepared from 1× enzyme reaction buffer, 5 μl or 2 μl kinase was added to each well of the reaction plate, the reaction plate was sealed with a sealing plate, centrifuged at 1000 g for 30 seconds and incubated at room temperature for 10 min.
(§6) 3) a mixed solution of 2× TK-substrate-biotin and ATP were prepared from 1× enzyme reaction buffer solution, 5 μl or 2 μl TK-substrate-biotin/ATP of the mixed solution was added into a reaction plate, the reaction plate was sealed with a sealing plate, centrifuged at 1000 g for 30 seconds and reacted for 50 minutes or 10 minutes at room temperature.
(§7) 4) a mixed solution of 4× or 2× Sa-XL 665 and TK-antibody-Cryptate were prepared from HTRF detection buffer, 5 or 10 μl of the mixed solution of Sa-XL 665 and TK-antibody-Cryptate was added into each well, centrifuged at 1000 g for 30 seconds, and reacted at room temperature for 1 h.
(§8) 5) the fluorescence signals at 615 nm (cryptate) and 665 nm (XL665) were read with Envision 2104 or TECAN.
(§9) The data was analyzed using GraphPad Prism 6.0 or 7 software, and the dose-response curve was fitted with nonlinear S-curve regression, and the IC50 value was calculated therefrom.
(§10) Enzyme Inhibition Percent (%)=100-(Signalmpd-SignalAve_PC)/(SignalAve_VC-SignalAve_PC)×100

MET D1228N = MET D1228N (Homo sapiens, UniProt P08581, D1228N); experiment: Kinase inhibition experiment (HTRF KinEASE-TK kit), mutant MET D1228N; format: biochemical; details: read-out: IC50 (nM) of inhibition of mutant D1228N MET kinase, 10 concentrations, 3-fold dilution
Method: as §1, §2, §3, §4, §5, §6, §7, §8, §9, §10

MET F1200I = MET F1200I (Homo sapiens, UniProt P08581, F1200I); experiment: Kinase inhibition experiment (HTRF KinEASE-TK kit), mutant MET F1200I; format: biochemical; details: read-out: IC50 (nM) of inhibition of mutant F1200I MET kinase, 10 concentrations, 3-fold dilution
Method: as §1, §2, §3, §4, §5, §6, §7, §8, §9, §10

Hs746T cell line = experiment: Cell proliferation inhibition experiment (CellTiter-Glo), Hs746T; details: read-out: IC50 (nM) of the proliferation inhibition of Hs746T cell line; Hs 746T; CTG; 72 h
Method: CellTiter-Glo™ live cell detection kit adopts luciferase as the detection substance, and the luciferase needs the participation of ATP in the luminescence process. CellTiter-Glo™ reagent was added into the cell culture medium and the luminescence value was measured. The light signal is in direct proportion to the amount of ATP in the system, ATP is in direct correlation with number of living cells. Therefore, the proliferation of cells can be detected by detecting the content of ATP with CellTiter-Glo kit.
In the experiment, the proliferation inhibition effect of the prepared compounds on tumor cell lines Hs746T, EBC-1 and H1993 was measured by a celltiter-glo (CTG) method, and 50% inhibition concentration IC50 was calculated.
The compounds were determined on the selected cells, the solvent control was set and a total of 10 concentrations were detected, 2 replicates per concentration.
a) Cells in the logarithmic growth phase were harvested and counted by a […]. The cell viability was detected by a trypan blue exclusion method to ensure that the cell viability was over 90%. […]
d) The cell plate was left at room temperature for 20 minutes to stabilize the luminescence signal.
e) The cold light value was read.
The data was analyzed by GraphPad Prism 8 software, and the dose-response curve was fitted with nonlinear S-curve regression, and the IC50 value was calculated therefrom. […]

SMILES	IC50 [1] [nM]	IC50 (MET D1228N) [nM]	IC50 (MET F1200I) [nM]	IC50 (Hs746T cell line) [nM]
C[C@H](CO)Nc1n[nH]c2nccc(Oc3ncc(NC(=O)c4cccc(-c5ccc(F)cc5)[n+]4[O-])cc3F)c12	5.2	24.5		
C[C@H](CO)Nc1n[nH]c2nccc(Oc3ccc(NC(=O)c4cccc(-c5ccc(F)c(F)c5)[n+]4[O-])cc3F)c12	8.2	23.6	14.6	
C[C@H](CO)Nc1n[nH]c2nccc(Oc3ccc(NC(=O)c4cccc(-c5ccc(F)cc5)[n+]4[O-])c(F)c3)c12	0.4	16.8	5.6	
C[C@H](CO)Nc1n[nH]c2nccc(Oc3ccc(NC(=O)c4cccc(-c5cccc(C(F)(F)F)c5)[n+]4[O-])cc3F)c12	5.3	36.8		
O=C(Nc1ccc(Oc2ccnc3[nH]nc(NCC4(O)CC4)c23)c(F)c1)c1cccc(-c2ccc(F)cc2)[n+]1[O-]	5.3	20.9	26.5	20.9
C[C@H](CO)Nc1n[nH]c2nccc(Oc3ccc(NC(=O)c4cccc(-c5ccc(F)cc5Cl)[n+]4[O-])cc3F)c12	25.9	27.1	15.1	
Cc1ccc(C(=O)Nc2ccc(Oc3ccnc4[nH]nc(NC5CC(CO)C5)c34)c(Cl)c2)[n+]([O-])c1-c1ccc(F)cc1 (centres unmarked)	7	48.7	35.2	
C[C@H](CO)Nc1n[nH]c2nccc(Oc3ccc(NC(=O)c4cccc(-c5ccc(F)cc5)[n+]4[O-])cc3C(F)(F)F)c12	6.4	23.8	8.6	
C[C@H](CO)Nc1n[nH]c2nccc(Oc3ccc(NC(=O)c4cccc(-c5ccc(F)cc5)[n+]4[O-])cc3)c12	2.2	29.3	15.7	
C[C@H](CO)Nc1n[nH]c2nccc(Oc3ccc(NC(=O)c4cccc(-c5ccc(F)cc5)[n+]4[O-])nc3)c12	6.3	23.5	12	
Cc1cc(F)ccc1-c1cccc(C(=O)Nc2ccc(Oc3ccnc4[nH]nc(N[C@H](C)CO)c34)c(F)c2)[n+]1[O-]	4.6	27.8	13.1	
C[C@H](CO)Nc1n[nH]c2nccc(Oc3ccc(NC(=O)c4cc(Cl)cc(-c5ccc(F)cc5)[n+]4[O-])cc3F)c12	6.5	16.9	28.1	
C=CC(O)CNc1n[nH]c2nccc(Oc3ccc(NC(=O)c4cccc(-c5ccc(F)cc5)[n+]4[O-])cc3F)c12 (centres unmarked)	4.1	25.7	32.7	
